This note sets out measurements from ChEMBL document CHEMBL1155335, “Studies towards topical selective beta2-adrenoceptor agonists with a long duration of action” (Bioorg Med Chem Lett, 2009).

In this experiment the test system is Cavia porcellus. The experiment is described as follows: Bronchoprotective activity in intratracheally dosed guinea pig assessed as inhibition of acetylcholine-induced increase in pulmonary resistance after 5 hrs. The class given is functional, organism-based.

For the compound `COc1ccc(CC(C)NCC(O)c2ccc(O)c(NC=O)c2)cc1` (stereo unspecified), the Activity entry is “Dose-dependent effect”.
